target: T1, JAK3 (Homo sapiens, UniProt P52333); assay: biochemical; conditions: not given
T1 sequence (P52333 1-1124): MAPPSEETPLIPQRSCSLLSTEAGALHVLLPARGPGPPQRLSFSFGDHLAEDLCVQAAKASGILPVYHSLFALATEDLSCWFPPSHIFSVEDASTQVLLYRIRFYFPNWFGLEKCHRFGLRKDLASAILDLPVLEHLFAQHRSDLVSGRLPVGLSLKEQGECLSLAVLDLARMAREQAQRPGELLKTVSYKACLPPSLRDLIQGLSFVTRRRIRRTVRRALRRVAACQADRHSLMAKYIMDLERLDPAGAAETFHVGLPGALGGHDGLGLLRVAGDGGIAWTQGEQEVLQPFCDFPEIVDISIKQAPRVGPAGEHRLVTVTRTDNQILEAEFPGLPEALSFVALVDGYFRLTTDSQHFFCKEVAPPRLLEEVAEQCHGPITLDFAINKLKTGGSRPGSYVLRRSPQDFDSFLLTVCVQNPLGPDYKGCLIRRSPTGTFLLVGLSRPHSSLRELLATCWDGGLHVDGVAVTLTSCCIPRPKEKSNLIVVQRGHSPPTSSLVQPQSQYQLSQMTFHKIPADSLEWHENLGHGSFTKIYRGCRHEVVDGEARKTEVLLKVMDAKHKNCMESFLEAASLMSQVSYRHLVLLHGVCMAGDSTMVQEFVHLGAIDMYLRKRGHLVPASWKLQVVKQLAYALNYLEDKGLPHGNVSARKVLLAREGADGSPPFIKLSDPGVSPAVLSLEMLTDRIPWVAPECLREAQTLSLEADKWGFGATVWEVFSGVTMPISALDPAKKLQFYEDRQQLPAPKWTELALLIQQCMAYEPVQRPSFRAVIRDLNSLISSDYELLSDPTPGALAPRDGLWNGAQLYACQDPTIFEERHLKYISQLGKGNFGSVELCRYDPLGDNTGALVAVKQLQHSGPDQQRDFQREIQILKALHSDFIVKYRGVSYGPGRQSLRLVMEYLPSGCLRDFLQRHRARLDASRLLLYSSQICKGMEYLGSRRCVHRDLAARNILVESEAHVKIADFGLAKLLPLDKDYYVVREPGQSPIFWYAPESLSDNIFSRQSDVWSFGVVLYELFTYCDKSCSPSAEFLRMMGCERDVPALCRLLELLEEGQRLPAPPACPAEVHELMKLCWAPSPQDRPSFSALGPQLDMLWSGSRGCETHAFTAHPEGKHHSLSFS

Structure (SMILES)	Ki
Cc1cc(Nc2cc(N3CCC3)nc(Sc3ccc(NC(=O)c4c(F)cccc4F)cc3)n2)[nH]n1 [Compound I-2, N-{4-[4-Azetidin-1-yl-6-(5-methyl-2H-pyrazol-3-ylamino)-pyrimidin-2-ylsulfanyl]-phenyl}-2,6-Difluoro-benzamide]	150 nM
Cc1cc(Nc2cc(N3CCC3)nc(Sc3ccc(NC(=O)c4ccccc4F)cc3)n2)[nH]n1 [Compound I-3]	130 nM
Cc1cccc(C(=O)Nc2ccc(Sc3nc(Nc4cc(C)[nH]n4)cc(N4CCC4)n3)cc2)c1 [Compound I-4]	410 nM
Cc1cc(Nc2cc(N3CCC3)nc(Sc3ccc(NC(=O)c4ccccc4C)cc3)n2)[nH]n1 [Compound I-5]	460 nM
COc1ccccc1C(=O)Nc1ccc(Sc2nc(Nc3cc(C)[nH]n3)cc(N3CCC3)n2)cc1 [Compound I-6]	820 nM
Cc1cc(Nc2cc(N3CCC3)nc(Sc3ccc(NC(=O)c4cccc(F)c4F)cc3)n2)[nH]n1 [Compound I-7]	150 nM
Cc1cc(Nc2cc(N3CCC3)nc(Sc3ccc(NC(=O)c4ccccc4OC(F)(F)F)cc3)n2)[nH]n1 [Compound I-8]	810 nM
Cc1cc(Nc2cc(N3CCC3)nc(Sc3ccc(NC(=O)c4c(Cl)cccc4Cl)cc3)n2)n[nH]1 [Compound I-11]	270 nM
Cc1cc(Nc2cc(N3CCC3)nc(Sc3ccc(NC(=O)c4cccc(Cl)c4)cc3)n2)n[nH]1 [Compound I-12]	180 nM
Cc1cc(Nc2cc(N3CCC3)nc(Sc3ccc(NC(=O)c4ccccc4C(F)(F)F)cc3)n2)[nH]n1 [Compound I-14]	180 nM
CCc1cc(Nc2cc(N3CCC3)nc(Sc3ccc(NC(=O)c4ccccc4Cl)cc3)n2)n[nH]1 [Compound I-16]	130 nM
COc1cccc(C(=O)Nc2ccc(Sc3nc(Nc4cc(C)n[nH]4)cc(N4CCC4)n3)cc2)c1 [Compound I-18]	200 nM
Cc1cc(Nc2cc(N3CCC3)nc(Sc3ccc(NC(=O)c4ccccc4C(F)F)cc3)n2)[nH]n1 [Compound I-19]	270 nM
Cc1cc(Nc2cc(N3CCC3)nc(Sc3ccc(NC(=O)c4cc(Cl)ccc4Cl)cc3)n2)n[nH]1 [Compound I-21]	260 nM

same assay, conditions: 5 μM ATP, 1 μM poly(Glu)4Tyr, 25° C., 1 nM JAK3; read-out: JAK-3 Ki

Structure (SMILES)	Ki
Cc1cc(Nc2cc(N3CCC3)nc(Sc3ccc(NC(=O)c4ccccc4Cl)nc3)n2)[nH]n1 [Compound I-24]	500 nM
